pIC50: −log10 of the molar value.

Chains of the proteins cited; added tags and fusions are not shown. Residues count along the entry.
UniProt P22303, 32-614 limits assumed: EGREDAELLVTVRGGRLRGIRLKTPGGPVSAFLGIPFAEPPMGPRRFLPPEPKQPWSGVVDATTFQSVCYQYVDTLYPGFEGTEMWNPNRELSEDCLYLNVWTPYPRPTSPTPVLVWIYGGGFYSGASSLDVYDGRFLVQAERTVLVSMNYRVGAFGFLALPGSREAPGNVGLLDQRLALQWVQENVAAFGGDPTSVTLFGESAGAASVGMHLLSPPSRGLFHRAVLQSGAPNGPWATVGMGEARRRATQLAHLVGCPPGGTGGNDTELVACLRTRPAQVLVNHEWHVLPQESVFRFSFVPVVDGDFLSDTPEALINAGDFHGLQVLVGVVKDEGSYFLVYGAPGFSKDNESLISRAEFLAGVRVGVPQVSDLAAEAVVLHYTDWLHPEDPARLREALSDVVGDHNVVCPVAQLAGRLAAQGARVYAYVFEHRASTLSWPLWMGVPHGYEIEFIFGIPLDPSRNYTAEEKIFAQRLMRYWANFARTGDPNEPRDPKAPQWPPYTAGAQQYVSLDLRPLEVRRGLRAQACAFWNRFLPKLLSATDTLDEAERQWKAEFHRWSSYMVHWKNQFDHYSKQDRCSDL

The target in this experiment is Human recombinant acetylcholinesterase (Homo sapiens (Human), UniProt P22303). Description: biochemical.

For `CCN(C)C(=O)Oc1cc(C(C)N(C)C)cc2oc(=O)c3ccccc3c12` (racemic) [FAR-01-2CA, (±)-3-(1-(dimethylamino)ethyl)-6-oxo-6H-benzo[c]chromen-1-yl ethyl(methyl)carbamate], the pIC50 (commonly −log10 of the IC50, conventionally taken in molar units) was 4.40.

(Values after US9586925B2 (priority 2013, dated 2017).)
